{"sequences": {"note": "Sequences of proteins named here, by UniProt entry; tags and fusion partners are left off.", "UniProt P78527, whole entry": "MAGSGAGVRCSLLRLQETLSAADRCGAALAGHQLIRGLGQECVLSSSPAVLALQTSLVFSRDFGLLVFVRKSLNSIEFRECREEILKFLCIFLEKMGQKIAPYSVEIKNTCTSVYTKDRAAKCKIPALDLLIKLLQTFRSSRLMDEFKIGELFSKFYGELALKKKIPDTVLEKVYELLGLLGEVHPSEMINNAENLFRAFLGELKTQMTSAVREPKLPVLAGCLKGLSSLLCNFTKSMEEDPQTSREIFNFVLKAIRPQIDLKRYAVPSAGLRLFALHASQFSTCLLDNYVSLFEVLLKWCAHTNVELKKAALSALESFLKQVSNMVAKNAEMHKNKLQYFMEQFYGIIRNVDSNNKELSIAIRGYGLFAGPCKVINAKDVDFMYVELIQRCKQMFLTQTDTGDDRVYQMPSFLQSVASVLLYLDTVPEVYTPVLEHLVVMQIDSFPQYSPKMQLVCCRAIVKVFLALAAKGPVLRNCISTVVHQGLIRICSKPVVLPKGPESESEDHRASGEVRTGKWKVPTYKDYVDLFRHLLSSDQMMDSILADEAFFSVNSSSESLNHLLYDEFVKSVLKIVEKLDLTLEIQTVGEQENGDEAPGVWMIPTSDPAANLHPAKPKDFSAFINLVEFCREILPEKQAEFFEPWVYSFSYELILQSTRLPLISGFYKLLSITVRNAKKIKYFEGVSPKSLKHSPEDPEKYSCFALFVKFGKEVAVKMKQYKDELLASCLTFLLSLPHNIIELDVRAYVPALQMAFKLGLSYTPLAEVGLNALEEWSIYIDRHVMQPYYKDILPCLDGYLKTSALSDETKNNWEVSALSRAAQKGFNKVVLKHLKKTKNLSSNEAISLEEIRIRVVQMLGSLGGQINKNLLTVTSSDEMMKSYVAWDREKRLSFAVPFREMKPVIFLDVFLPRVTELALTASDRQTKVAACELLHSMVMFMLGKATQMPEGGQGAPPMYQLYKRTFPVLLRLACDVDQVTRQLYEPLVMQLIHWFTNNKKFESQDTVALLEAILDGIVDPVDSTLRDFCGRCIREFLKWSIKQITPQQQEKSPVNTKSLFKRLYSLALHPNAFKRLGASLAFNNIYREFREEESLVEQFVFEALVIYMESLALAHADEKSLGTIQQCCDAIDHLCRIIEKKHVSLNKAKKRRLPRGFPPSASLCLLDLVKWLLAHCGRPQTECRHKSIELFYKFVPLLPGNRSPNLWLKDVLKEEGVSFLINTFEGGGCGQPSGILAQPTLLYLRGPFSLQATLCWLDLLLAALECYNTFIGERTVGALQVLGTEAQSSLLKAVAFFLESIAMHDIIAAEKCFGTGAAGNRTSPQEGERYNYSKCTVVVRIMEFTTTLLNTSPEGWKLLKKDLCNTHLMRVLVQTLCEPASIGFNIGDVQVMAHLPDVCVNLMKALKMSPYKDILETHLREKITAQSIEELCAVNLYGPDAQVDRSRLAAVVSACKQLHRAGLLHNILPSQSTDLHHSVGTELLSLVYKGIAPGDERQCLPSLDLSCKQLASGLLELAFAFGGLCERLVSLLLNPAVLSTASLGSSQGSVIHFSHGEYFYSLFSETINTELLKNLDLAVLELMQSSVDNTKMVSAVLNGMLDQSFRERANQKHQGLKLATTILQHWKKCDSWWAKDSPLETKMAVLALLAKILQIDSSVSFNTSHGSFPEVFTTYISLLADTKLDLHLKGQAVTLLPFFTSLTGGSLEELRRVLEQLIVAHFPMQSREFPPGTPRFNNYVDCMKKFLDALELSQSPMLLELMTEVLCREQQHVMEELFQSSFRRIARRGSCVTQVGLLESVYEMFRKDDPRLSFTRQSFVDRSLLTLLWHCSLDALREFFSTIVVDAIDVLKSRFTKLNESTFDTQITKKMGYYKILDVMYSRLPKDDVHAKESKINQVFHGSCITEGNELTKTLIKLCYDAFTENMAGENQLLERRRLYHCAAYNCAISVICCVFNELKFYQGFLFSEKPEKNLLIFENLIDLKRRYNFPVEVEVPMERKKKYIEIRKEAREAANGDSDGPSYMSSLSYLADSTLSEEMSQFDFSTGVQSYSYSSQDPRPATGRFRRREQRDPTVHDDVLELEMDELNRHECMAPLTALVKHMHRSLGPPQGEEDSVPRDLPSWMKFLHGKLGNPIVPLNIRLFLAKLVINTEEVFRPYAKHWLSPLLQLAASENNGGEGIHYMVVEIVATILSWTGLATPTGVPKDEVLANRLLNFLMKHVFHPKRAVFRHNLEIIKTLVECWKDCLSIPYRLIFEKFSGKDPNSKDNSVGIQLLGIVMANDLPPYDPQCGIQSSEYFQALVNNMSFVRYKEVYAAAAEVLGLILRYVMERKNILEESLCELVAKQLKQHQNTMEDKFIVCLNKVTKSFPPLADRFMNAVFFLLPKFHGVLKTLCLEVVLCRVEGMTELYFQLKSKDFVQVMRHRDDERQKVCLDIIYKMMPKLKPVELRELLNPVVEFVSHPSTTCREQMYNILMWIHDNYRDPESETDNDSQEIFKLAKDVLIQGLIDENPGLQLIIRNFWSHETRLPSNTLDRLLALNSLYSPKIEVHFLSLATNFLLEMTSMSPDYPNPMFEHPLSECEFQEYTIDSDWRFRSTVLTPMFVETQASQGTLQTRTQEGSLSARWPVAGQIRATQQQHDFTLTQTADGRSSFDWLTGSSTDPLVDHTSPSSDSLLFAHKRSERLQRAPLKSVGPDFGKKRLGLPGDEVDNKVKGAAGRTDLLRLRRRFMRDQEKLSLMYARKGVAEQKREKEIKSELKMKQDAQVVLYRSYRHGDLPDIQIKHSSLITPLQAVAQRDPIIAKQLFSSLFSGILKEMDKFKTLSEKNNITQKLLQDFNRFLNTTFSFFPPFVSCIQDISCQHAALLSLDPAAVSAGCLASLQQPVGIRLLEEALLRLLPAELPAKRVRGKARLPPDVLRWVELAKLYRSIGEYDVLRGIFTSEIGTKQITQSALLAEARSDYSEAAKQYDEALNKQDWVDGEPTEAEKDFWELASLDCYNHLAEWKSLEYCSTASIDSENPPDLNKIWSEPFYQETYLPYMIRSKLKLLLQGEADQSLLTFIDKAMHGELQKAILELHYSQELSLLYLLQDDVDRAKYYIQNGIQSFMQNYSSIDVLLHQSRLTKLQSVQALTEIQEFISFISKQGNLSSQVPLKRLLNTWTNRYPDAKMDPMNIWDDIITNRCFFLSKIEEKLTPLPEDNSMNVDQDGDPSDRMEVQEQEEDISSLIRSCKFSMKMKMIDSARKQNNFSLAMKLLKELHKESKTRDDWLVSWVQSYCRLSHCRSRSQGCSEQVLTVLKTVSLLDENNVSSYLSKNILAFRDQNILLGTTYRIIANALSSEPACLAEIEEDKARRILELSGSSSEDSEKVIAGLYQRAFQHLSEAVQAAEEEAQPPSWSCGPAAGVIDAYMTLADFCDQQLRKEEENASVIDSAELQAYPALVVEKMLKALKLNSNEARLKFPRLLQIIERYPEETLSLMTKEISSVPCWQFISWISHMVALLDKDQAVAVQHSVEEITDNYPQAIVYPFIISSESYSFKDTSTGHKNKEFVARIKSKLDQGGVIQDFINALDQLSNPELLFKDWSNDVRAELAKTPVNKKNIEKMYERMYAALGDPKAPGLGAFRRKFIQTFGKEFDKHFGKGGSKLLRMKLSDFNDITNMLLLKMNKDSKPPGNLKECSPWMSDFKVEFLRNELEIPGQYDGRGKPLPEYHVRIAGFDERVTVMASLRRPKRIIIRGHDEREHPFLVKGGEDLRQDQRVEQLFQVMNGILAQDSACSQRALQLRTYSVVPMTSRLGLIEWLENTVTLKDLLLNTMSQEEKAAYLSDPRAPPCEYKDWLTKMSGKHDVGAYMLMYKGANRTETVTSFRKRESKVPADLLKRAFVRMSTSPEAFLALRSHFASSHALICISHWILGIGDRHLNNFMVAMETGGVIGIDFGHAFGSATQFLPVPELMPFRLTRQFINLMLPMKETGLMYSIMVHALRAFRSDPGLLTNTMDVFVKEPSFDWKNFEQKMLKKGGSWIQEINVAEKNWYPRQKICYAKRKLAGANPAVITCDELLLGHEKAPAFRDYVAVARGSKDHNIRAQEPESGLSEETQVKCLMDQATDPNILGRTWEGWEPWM"}, "source": "patent US8242115B2", "about": "“Materials and methods to potentiate cancer treatment” (Luitpold Pharmaceuticals, Inc., priority 2000, dated 2012)", "molecular_target": "T1, human DNA-PK (Homo sapiens, UniProt P78527)", "T1 construct": "The frozen HeLa cell pellet was thawed at 37° C. and immediately centrifuged; endogenous in cells; host or cells: HeLa S3 cells (ATCC CCL-2.2); Endogenous enzyme purified via S100-2 fraction, Q-Sepharose FF and SP-Sepharose FF (fraction IV)", "test": "Standard DNA-PK assay (p53 peptide phosphorylation)", "format": "biochemical", "description": "Reactions were carried out at room temperature. Reactions were started by addition of ATP and stopped by application to phosphocellulose paper. Reaction products spotted onto phosphocellulose paper were washed five times with a total volume of at least 250 mL 10% acetic acid or 150 mM phosphoric acid. The paper was air dried and radioactivity was determined in a Beckman LS6000IC scintillation counter.", "data": [{"smiles": "COC[C@H]1OC(=O)c2coc3c2[C@@]1(C)C1=C(C3=O)[C@@H]2CCC(=O)[C@@]2(C)C[C@H]1OC(C)=O", "note": "[wortmannin, reference compound]", "values": [{"measurement": "IC50", "value": "100 to 250", "unit": "nM"}]}]}
